From patent US11396548B2, “EGFR targeted therapy of neurological disorders and pain” (Sykehuset Sørlandet HF, priority 2012, dated 2022)
“Also recorded” adds a separate entry of the source.

Experiments:
[1] = tested on: pelvic tumor (recurrent rectal cancer); test: MRI of pelvic tumor during cetuximab treatment (case 1); format: in vivo, human
Text: FIGS. 1a-d describe graphically the clinical course of case 1 over period of 69 months. Progression of the pelvic tumor in case 1 during this period is shown in the magnetic resonance image (MRI) in FIG. 2a-c.
FIGS. 2a-c. Recurrent and progressive rectal cancer. Arrows indicate tumor changes affecting the left sacral plexus and left sciatic nerve. 2a. […] There is a presacral recurrence that extends along the left sciatic nerve. 2b. […] Both the presacral recurrence and its extension along the sciatic nerve have increased in size. […] There is further progression of the recurrence in the presacral area and along the left sciatic nerve.

human tumor = conditions: nude mice; cited from earlier work
[2] = tested on: patients with neuropathic pain; test: Case reports: relief of neuropathic pain by EGFR inhibitors (0-10 NRS / Brief Pain Inventory); format: in vivo, human; conditions: for NP relief (summary of the cases): conditions where proximal and/or distal parts of peripheral nerves were affected
Method: The term “in vivo” refers to the natural environment (e.g., an animal or a cell) and to processes or reaction that occur within a natural environment. […] Pain interference is assessed using the Brief Pain Inventory (BPI). BPI is used to evaluate pain interference with the following: (a) general activity, (b) mood, (c) walking ability, (d) normal work, (e) relations with other people, (f) sleep, and (g) enjoyment of life. Total score for pain interference is calculated as: (Mean score of non-missing questions)×(7/number of non-missing questions). If four or more questions are missing, the pain interference total score is set to missing.
In some cases, the patients were asked to complete a BPI short form daily, just before and during the EGFR inhibition, in order to document their neuropathic pain and thus, help us to judge their responses and guide treatment decisions.

[3] = Case reports: performance status, function, quality of life and accompanying symptoms; format: in vivo, human; conditions: Case 2
[4] = Case reports: concomitant analgesic / opioid requirement during EGFR inhibition; format: in vivo, human
tumor cell = conditions: cited from earlier work
[5] = Case reports: side effects of EGFR inhibitors; format: in vivo, human
[6] = Case 1, 450 mg, 12-day cycles, 2-4 months
[7] = Case 2, yrs, complex regional pain syndrome type 1 of the right hand, sequence cetuximab, panitumumab, cetuximab, gefitinib, erlotinib
[8] = Case 3, yrs, radiculopathy due to failed back surgery syndrome, two weekly cetuximab infusions, then gefitinib tablets, then panitumumab
[9] = Case 4, yrs, bladder cancer recurrence invading sacral nerve roots, cetuximab (effect within hours) then oral gefitinib

cetuximab
Pelvic lesion on MRI ([1]; eight months after starting cetuximab monotherapy): an increase in the offending lesion | Pelvic tumor size on MRI ([1]; four months after starting XELOX and cetuximab): no change | Human tumor formation in vivo (human tumor): inhibit human tumor formation in vivo in nude mice | Result of treatment: duration of less pain ([2]; Case 1, 450 mg first infusion and 350 mg third infusion): cetuximab infusion, lasting 2 weeks | Result of treatment: time to less pain after cetuximab infusion ([2]; Case 1, 450 mg first infusion and 350 mg third infusion (time 0, 4 weeks)): Less pain within 4 hours of | Result of treatment: duration of less pain [2, 6]: lasting 10-14 days | Result of treatment: time to less pain after cetuximab infusion [2, 6]: within 4 hours | Analgesic effect at reduced dose ([2]; Case 1, 20% of the normal cetuximab dose, patient unaware): no analgesic effect | Neuropathic pelvic pain response ([2]; Case 1, cetuximab in combination with XELOX (capecitabine and oxaliplatin)): completely gone; also recorded: completely, or nearly completely, disappeared within four to five hours | Neuropathic pain response ([2]; Case 1, cetuximab monotherapy 450 mg i.v./250 mg per m^2, roughly every 12 days, 20 months, cancer in progression): improved dramatically; also recorded: continued to be best controlled with cetuximab; also recorded: continued to have the dramatic analgesic effect | Clinical picture ([2]; Case 1, cetuximab monotherapy 550 mg, 5-8 months, within hours, especially on peak pain): positive effect | Duration of effective analgesia ([2]; Case 1, cetuximab monotherapy at previously effective dose): under 2 weeks | Time to effective analgesia after infusion ([2]; Case 1, cetuximab monotherapy at previously effective dose, approximately every 12 days): 4 to 5 h | Clinical picture ([2]; Case 1, cetuximab monotherapy, 4 weeks to 2-4 months): Significantly less pain. Pain recurrence during | Result of treatment (effect of increased dose on analgesic response) ([2]; Case 1, increased dose 550 mg, 5-8 months): did not prolong | Pain on movement ([2]; Case 1, just hours after last cetuximab infusion, after 20 months of monotherapy): from nine to two | Pain at rest ([2]; Case 1, just hours after last cetuximab infusion, after 20 months of monotherapy, no increase in analgesics): from five to two | Result of treatment (analgesic effect) ([2]; Case 1, lower dose 150 mg at 6 weeks to assess dose-response and placebo effect): No resultant | Time to complete pain relief after first dose ([2]; Case 2, CRPS1, weekly cetuximab infusions): ≤ 24 h | Neuropathic pain response [2, 7]: complete pain relief which persisted until the next infusion; also recorded: therapeutically successful; also recorded: relieved their NP | Neuropathic pain response [2, 8]: reduced significantly and in the following days, the NP disappeared completely; also recorded: After an eleven-day cetuximab wash-out, his NP began to relapse | Neuropathic pain response [2, 9]: complete relief of their NP | Time to pain recurrence after the last cetuximab infusion ([2]; cases 1 and 3): 11 to 14 days | NP relief (summary of the cases) [2]: led to complete NP relief | Pain reduction ([2]; general statement, 4-6 h after intravenous administration): about 90% | Effect on vasomotor pathology / symptoms of CRPS1 [3]: did not influence | 24-hour morphine requirement, depot ([4]; Case 1, 2-4 months, just after infusion): Depot: 90 mg | 24-hour morphine requirement, depot ([4]; Case 1, 2-4 months, just before next dose): infusion, 180 mg | 24-hour morphine requirement, immediate release ([4]; Case 1, 4 weeks, 120-180 mg at time 0): none | 24-hour morphine requirement, depot ([4]; Case 1, 5-8 months, just after infusion): Depot: 290 mg | 24-hour morphine requirement, depot ([4]; Case 1, 5-8 months, just before next dose): to 480 mg just | 24-hour morphine requirement, immediate release ([4]; Case 1, 6 weeks to 5-8 months): Immediate release: none except | 24-hour morphine requirement ([4]; Case 1, 6 weeks, after lower cetuximab dose 150 mg): Increased | Opiate use ([4]; Case 1, XELOX and cetuximab, after two treatments, 200 mg dolcontin per 24 hours at outset): practically stopped all opiate use | Opioid dose immediately following cetuximab infusion, as fraction of the end-of-cycle dose ([4]; Case 1, cetuximab monotherapy): approximately ⅓ | 24-hour morphine requirement, depot ([4]; Case 1, cetuximab monotherapy, 4 weeks, 290 mg at time 0): 150 mg | Depot opioid dose ([4]; Case 1, within four weeks after first cetuximab monotherapy infusion, 320 mg/24 hours before): cut their depot opioid dose in half | Reduction of opioid and gabapentin doses ([4]; Case 4, three days after first cetuximab treatment, 24-hour morphine-equivalent dose 1800 mg before): 50% | EGF-mediated tumor cell growth in vitro (tumor cell): inhibit EGF-mediated tumor cell growth in vitro

COc1cc2ncnc(Nc3ccc(F)c(Cl)c3)c2cc1OCCCN1CCOCC1 [gefitinib]
Neuropathic pain response [2, 7]: continued to be completely relieved | Neuropathic pain response [2, 8]: continued to increase for the first two days of oral treatment; also recorded: gradually improved to levels as good as those they had experienced with cetuximab; also recorded: completely alleviated after two to three weeks of treatment | Neuropathic pain response ([2]; Case 3, yrs, radiculopathy due to failed back surgery syndrome, two weekly cetuximab infusions, then gefitinib tablets, then panitumumab, listed as Gefitinib): NP recurred after three days | Time to analgesic response ([2]; Case 3, oral gefitinib after cetuximab washout): one week | Pain score after three weeks of gefitinib ([2]; Case 3, oral gefitinib after complete cetuximab washout with pain recurrence): 0 /10 | Neuropathic pain response [2, 9]: Complete relief from NP was maintained through and beyond this transition; also recorded: completely relieved by gefitinib for 277 days of follow-up | NP relief (summary of the cases) [2]: led to complete NP relief | Side effect ([5]; Case 2, nineteen weeks after first gefitinib dose): elevated liver transaminases | Side effect ([5]; Case 3, one month after starting gefitinib): pneumonia | Side effect ([5]; Case 3, one month after starting gefitinib, listed as Gefitinib): interstitial lung disease (ILD) could not be excluded
